The record followed here is ChEMBL document CHEMBL1126886, “Synthesis of 5-methyl-5-deaza nonclassical antifolates as inhibitors of dihydrofolate reductases and as potential antipneumocystis, antitoxoplasma, and antitumor agents” (J Med Chem, 1993).

Structures are written as SMILES.

What is called IC50 is the midpoint of a concentration-inhibition curve. A higher IC50 goes with a need for much substance.

The target of this experiment is T1, Bifunctional dihydrofolate reductase-thymidylate synthase (Toxoplasma gondii, UniProt Q07422).
T1 sequence (Q07422 whole entry): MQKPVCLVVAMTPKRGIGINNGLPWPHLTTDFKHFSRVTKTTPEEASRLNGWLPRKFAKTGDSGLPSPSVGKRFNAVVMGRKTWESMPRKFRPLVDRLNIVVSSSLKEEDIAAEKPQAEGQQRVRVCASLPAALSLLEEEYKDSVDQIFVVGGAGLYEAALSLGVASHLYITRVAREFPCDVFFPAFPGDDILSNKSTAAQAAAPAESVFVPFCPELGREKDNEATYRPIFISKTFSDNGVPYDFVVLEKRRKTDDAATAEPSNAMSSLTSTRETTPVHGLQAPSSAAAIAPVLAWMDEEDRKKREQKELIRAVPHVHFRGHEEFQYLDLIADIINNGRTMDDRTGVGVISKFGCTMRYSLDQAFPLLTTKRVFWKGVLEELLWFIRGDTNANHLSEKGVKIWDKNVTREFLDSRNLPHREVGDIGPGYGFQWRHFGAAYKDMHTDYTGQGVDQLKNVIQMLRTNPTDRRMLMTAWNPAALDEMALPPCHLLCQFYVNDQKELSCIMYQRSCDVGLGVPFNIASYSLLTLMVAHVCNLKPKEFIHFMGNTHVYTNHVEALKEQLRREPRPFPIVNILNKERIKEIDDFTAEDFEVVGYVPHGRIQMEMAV
The experiment is described as follows: Inhibition of Toxoplasma gondii dihydrofolate reductase.

The compound `COc1cc(N(C)Cc2cnc3nc(N)nc(N)c3c2C)cc(OC)c1OC` had an IC50 of 580 pM.
